In experiment [1] the test system is K562 cells. As to the kind of experiment: Inhibitory effect of compounds on proliferation of K562 cells (CCK-8). To be noted: read-out: IC50 (nM) K562.
Experiment [2] has as its target Ba/F3-BCR-ABL1-T315I-C3 cells (Homo sapiens, UniProt P00519, T315I, cells depend on it). As to the kind of experiment: Inhibitory effect of compounds on proliferation of BCR-ABL T315I-transfected Ba/F3 cells (CCK-8). Particulars: read-out: IC50 (nM) Ba/F3-BCR-ABL1 T315I, 72 h with compound, CCK-8, 5% serum. Here is the method: Ba/F3-BCR-ABL1-T315I-C3 cells in logarithmic growth phase and good cell condition were added to a centrifuge tube and centrifuged at 1000 rpm for 5 min in a low speed centrifuge. The supernatant was discarded, and 5 mL of complete medium (RPMI 1640 basic medium+10% FBS) was added using a pipette for cell resuspension. The cells were counted using a cell counter, diluted with complete medium to a cell density of 6×10^4 cells/mL, and an equivalent amount of RPMI 1640 basic medium was added to adjust the serum concentration to 5% and the cell density to 3×10^4 cells/mL for plate seeding. The cells were seeded on a 96-well plate at 100 μL/well using a multi-channel pipette and cultured in a cell incubator at 37° C. 5% CO2 and saturated humidity. After 24 h incubation, compounds were loaded using a nanoliter pipettor, 8 concentrations (1000 nM, 250 nM, 63 nM, 16 nM, 3.9 nM, 0.98 nM, 0.24 nM, 0.061 nM) were set for each compound, and 2 replicate wells were set for each concentration; cells with no compounds added were taken as a negative control, and a plating medium with no cells added was taken as a blank control. After 72 h. CCK-8 was added into Ba/F3-BCR-ABL1 T315I cells at 10 μL/well, the cells were placed at 37° C. for 1 h, and then the absorbance was measured at 450 nm with an Envision plate reader, and inhibition rate was calculated. Inhibition rate (%)=(mean value of negative control group−mean value of experimental group)/(mean value of negative control group−mean value of blank group)×100%. A dose-response curve was fitted by four-parameter analysis, with the logarithm of compound concentration serving as abscissa and inhibition rate serving as ordinate, such that ICso was calculated.

Protein sequences, listed by entry. Tags and fused reporters are not part of them.
UniProt P00519, whole entry T315I: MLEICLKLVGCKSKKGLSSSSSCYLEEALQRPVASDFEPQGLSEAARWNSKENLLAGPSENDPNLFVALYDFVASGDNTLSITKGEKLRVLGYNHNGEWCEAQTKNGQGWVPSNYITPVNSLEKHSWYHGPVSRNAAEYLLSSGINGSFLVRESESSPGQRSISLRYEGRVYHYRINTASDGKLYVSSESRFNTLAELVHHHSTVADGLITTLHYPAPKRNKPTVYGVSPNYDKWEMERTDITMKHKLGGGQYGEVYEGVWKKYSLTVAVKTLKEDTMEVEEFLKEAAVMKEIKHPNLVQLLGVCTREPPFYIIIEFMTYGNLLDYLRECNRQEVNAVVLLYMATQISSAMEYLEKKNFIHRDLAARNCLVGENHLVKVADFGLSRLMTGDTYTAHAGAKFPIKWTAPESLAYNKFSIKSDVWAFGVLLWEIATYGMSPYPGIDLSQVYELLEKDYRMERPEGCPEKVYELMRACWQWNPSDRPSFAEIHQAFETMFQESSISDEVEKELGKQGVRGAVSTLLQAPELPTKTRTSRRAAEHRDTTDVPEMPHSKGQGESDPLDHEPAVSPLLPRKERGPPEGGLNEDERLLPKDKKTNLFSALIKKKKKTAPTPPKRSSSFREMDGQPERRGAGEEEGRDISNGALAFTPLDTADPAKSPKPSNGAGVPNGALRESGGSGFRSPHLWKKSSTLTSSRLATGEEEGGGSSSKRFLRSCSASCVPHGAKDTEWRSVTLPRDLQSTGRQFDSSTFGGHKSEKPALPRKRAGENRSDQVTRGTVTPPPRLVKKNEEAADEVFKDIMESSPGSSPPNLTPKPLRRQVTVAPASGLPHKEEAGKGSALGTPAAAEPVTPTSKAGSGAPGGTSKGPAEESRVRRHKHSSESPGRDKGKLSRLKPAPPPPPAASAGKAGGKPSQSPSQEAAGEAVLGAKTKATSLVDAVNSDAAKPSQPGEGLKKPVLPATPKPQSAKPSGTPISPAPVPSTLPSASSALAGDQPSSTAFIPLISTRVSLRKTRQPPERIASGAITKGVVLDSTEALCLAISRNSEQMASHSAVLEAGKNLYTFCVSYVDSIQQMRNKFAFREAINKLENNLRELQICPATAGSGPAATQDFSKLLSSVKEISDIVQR

The mark [3] stands for this setting: K562 cells, 72 h with compound, CCK-8, 5% serum.

The source of these data is patent US20240262807A1, “COMPOUND USED AS BCR-ABL INHIBITOR” (CHIA TAI TIANQING PHARMACEUTICAL GROUP CO., LTD., priority 2021, published 2024).

SMILES strings stand for the structures. Read-outs that look alike come from different tables or passages of the source.

On to `Cn1ccc(-c2ncc(C(=O)Nc3ccc(OC(F)(F)Cl)cc3)cc2-c2cnn(C)c(=O)c2)n1`, for which the IC50 in experiment [1] (setting [3]) was found to be 14 nM. In experiment [2], the GI50 stood at 18 nM. The like results for `Cn1ccc(-c2cc(C(=O)Nc3ccc(OC(F)(F)Cl)cc3)cnc2N2CCC2CO)cc1=O` (single isomer, unassigned) were, in that order, 3.8 nM and 14 nM. Take `Cn1ccc(-c2cc(C(=O)Nc3ccc(OC(F)(F)Cl)cc3)cnc2N2CC(F)C2)cc1=O`: the IC50 in experiment [1] is 4.1 nM. Besides, the GI50 in experiment [2] worked out at 13 nM. Take `CO[C@@H]1CCN(c2ncc(C(=O)Nc3ccc(OC(F)(F)Cl)cc3)cc2-c2ccn(C)c(=O)c2)C1`: the IC50 in experiment [1] turned out to be 4.8 nM. Further, the GI50 in experiment [2] is 9.6 nM. For the molecule `CN1CCc2cc(-c3cc(C(=O)Nc4ccc(OC(F)(F)Cl)cc4)cnc3N3CC(O)C3)[nH]c2C1=O`, the GI50 in experiment [2] stood at 1.1 nM.

Consider `Cn1ncc(-c2cc(C(=O)Nc3ccc(OC(F)(F)Cl)cc3)cnc2N2C3CCC2COC3)cc1=O`, for which the IC50 in experiment [1] (setting [3]) is 17 nM. In addition, the GI50 in experiment [2] was found to be 9.5 nM.

Take `Cn1ccc(-c2cc(C(=O)Nc3ccc(OC(F)(F)Cl)cc3)cnc2N2CCOCC2)c(F)c1=O`: the IC50 in experiment [1] (setting [3]) came to 3.7 nM. Further, the GI50 in experiment [2] came out at 8.4 nM.

Regarding `O=C(Nc1ccc(OC(F)(F)Cl)cc1)c1cnc(N2CCOCC2)c(-c2ccn(C3CC3)c(=O)c2)c1`, the IC50 in experiment [1] (setting [3]) stood at 9 nM. For the same molecule, the GI50 in experiment [2] was 20 nM. In the case of `Cn1ccc(-c2cc(C(=O)Nc3ccc(OC(F)(F)Cl)cc3)cnc2N2CCC2)cc1=O`, the IC50 in experiment [1] was 3.8 nM. Further, in experiment [2], the GI50 was found to be 7.5 nM. In the case of `CO[C@H]1CCN(c2ncc(C(=O)Nc3ccc(OC(F)(F)Cl)cc3)cc2-c2ccn(C)c(=O)c2)C1`, the IC50 in experiment [1] (setting [3]) was determined as 9.3 nM. The GI50 in experiment [2] is 19 nM.

Consider `O=C(Nc1ccc(OC(F)(F)Cl)cc1)c1cnc(N2CC[C@@H](O)C2)c(-c2cnn3c2COCC3)c1`, for which the IC50 in experiment [1] (setting [3]) turned out to be 1.7 nM. Further, the GI50 in experiment [2] was 4.3 nM.
